Experimental findings from patent US20230218631A1 (priority 2020, published 2023) are described below.

The test system of the assay is C57BL/6J male mice.

Only a part of the results on these compounds is given; other tests are left out.

For “trans-(1R,2R)-3,4-Dichloro-N-methyl-N-[2-(1-pyrrolidinyl)cyclohexyl]-benzeneacetamide”, the “effect on ethanol drinking, low dose U50,488” value (1.25 mg/kg i.p.) is listed as “only modest effects”. In addition, the “ethanol drinking, second exposure to high dose U50,488, Air-treated virus control group” value (5 mg/kg i.p., Air-treated AAV-shSC, FIG. 3C) is recorded as “robust increase”. Further, the “ethanol drinking after U50,488 in virus control group (AAV-shSC)” value (5 mg/kg i.p., second cohort, FIG. 4C) is “increased ethanol drinking”. For the same substance, the “drinking levels after U50,488 in CIE-treated groups” value (CIE-treated (dependent) mice, FIG. 3D) is listed as “failed to increase drinking levels”.
